US7547728B2, “Treating muscle wasting with selective androgen receptor modulators” (priority 2001, dated 2009)

Test system: seminal vesicles
Assay: Androgenic activity: seminal vesicle weight in male rats
Conditions: relative to TP

CC(=O)Nc1ccc(OC[C@](C)(O)C(=O)Nc2ccc([N+](=O)[O-])c(C(F)(F)F)c2)cc1 [Compound V]
Relative Afficacy: 0.40 | Relative Potency: 0.22
